Results published in patent publication US20240208989A1, “NOVEL 12-EPI-MUTILIN COMPOUNDS AND USES THEREOF” (NABRIVA THERAPEUTICS GMBH, priority 2021, published 2024).

Assays:
[1] = tested on: cryopreserved primary mouse hepatocytes; assay: Metabolic stability against primary hepatocytes; type: in vitro ADME; conditions: 1 μg/mL, 37° C., 4 hours, remaining parent compound
[2] = tested on: Primary human hepatocytes; assay: Cytotoxicity, human hepatocyte assay (ATPlite); type: cell-based; conditions: 2 hours
Method: The cytotoxicity for compounds of the present invention was determined using a human hepatocyte assay. Primary human hepatocytes were incubated with various test compound concentrations (in triplicate) for 2 hours. Viability of cells is then measured by the luminescence ATPlite detection assay system according to the manufacturer (Perkin Elmer). ATP is a marker for cell viability because it is present in all metabolically active cells and the concentration declines very rapidly when the cells undergo necrosis or apoptosis. The ATPlite assay system is based on the production of light caused by the reaction of ATP with added luciferase and D-luciferin, where the emitted light is proportional to the ATP concentration (within certain limits).

[3] = tested on: cryopreserved primary human hepatocytes; assay: Metabolic stability against primary hepatocytes; type: in vitro ADME; conditions: 1 μg/mL, 37° C., 4 hours, remaining parent compound

With “12-epi-12-desvinyl-14-O-[(azepan-4-ylsulfanyl)-acetyl]-12-((E)-2-pyridin-3-yl-ethenyl) mutilin hydrochloride [Example 154 of WO 2015/110481, reference compound]” the “Metabolic stability against primary hepatocytes [% parent compound]” value [1] was 0%, the IC50 [2] was less than 225 µM and the “Metabolic stability against primary hepatocytes [% parent compound]” value [3] was 0%.
